# Laboratory results as given in patent US20210238308A1 (Chugai, published 2021).
# Chains of the proteins cited; added tags and fusions are not shown. A line that says so, or that is headed by a name, gives the form on record, which may keep a tag or linker. Residues count along the entry.
# UniProt P55899, 24-290 limits assumed, form in doubt, chain 1 of 2: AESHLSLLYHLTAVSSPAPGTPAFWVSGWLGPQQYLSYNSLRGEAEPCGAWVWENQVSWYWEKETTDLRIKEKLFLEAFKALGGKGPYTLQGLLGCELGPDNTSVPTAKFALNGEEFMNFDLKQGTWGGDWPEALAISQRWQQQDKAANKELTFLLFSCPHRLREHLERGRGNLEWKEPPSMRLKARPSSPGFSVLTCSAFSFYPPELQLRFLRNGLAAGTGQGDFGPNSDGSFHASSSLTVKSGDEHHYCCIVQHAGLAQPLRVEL
# T1: human TRIM21 PRYSPRY domain with N-terminal 6xHis tag (human)
# T1 construct: Expressed from pET28a in E. coli; also called hTRIM21
# T1 chain: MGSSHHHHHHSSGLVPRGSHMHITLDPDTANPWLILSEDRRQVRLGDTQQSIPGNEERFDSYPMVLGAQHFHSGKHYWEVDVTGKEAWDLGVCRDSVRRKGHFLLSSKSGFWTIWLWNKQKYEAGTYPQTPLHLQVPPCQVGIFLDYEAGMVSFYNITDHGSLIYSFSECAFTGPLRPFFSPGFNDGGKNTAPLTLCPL
# B1: MRAH-G1d/MRAL-KT0 K439A (antibody, human IgG1, kappa)
# heavy: QVQLQESGPGLVRPSQTLSLTCTVSGYSITSDHAWSWVRQPPGRGLEWIGYISYSGITTYNPSLKSRVTMLRDTSKNQFSLRLSSVTAADTAVYYCARSLARTTAMDYWGQGSLVTVSSASTKGPSVFPLAPSSKSTSGGTAALGCLVKDYFPEPVTVSWNSGALTSGVHTFPAVLQSSGLYSLSSVVTVPSSSLGTQTYICNVNHKPSNTKVDKKV[human IgG1 Fc with K439A (EU numbers) omitted here]
# light: DIQMTQSPSSLSASVGDRVTITCRASQDISSYLNWYQQKPGKAPKLLIYYTSRLHSGVPSRFSGSGSGTDFTFTISSLQPEDIATYYCQQGNTLPYTFGQGTKVEIKRTVAAPSVFIFPPSDEQLKSGTASVVCLLNNFYPREAKVQWKVDNALQSGNSQESVTEQDSKDSTYSLSSTLTLSKADYEKHKVYACEVTHQGLSSPVTKSFNRGEC
# B2: MRAH-G1d/MRAL-KT0 K439D (antibody, human IgG1, kappa)
# heavy: QVQLQESGPGLVRPSQTLSLTCTVSGYSITSDHAWSWVRQPPGRGLEWIGYISYSGITTYNPSLKSRVTMLRDTSKNQFSLRLSSVTAADTAVYYCARSLARTTAMDYWGQGSLVTVSSASTKGPSVFPLAPSSKSTSGGTAALGCLVKDYFPEPVTVSWNSGALTSGVHTFPAVLQSSGLYSLSSVVTVPSSSLGTQTYICNVNHKPSNTKVDKKV[human IgG1 Fc with K439D (EU numbers) omitted here]
# light: B1 light
# B3: MRAH-G1d/MRAL-KT0 K439E (antibody, human IgG1, kappa)
# heavy: QVQLQESGPGLVRPSQTLSLTCTVSGYSITSDHAWSWVRQPPGRGLEWIGYISYSGITTYNPSLKSRVTMLRDTSKNQFSLRLSSVTAADTAVYYCARSLARTTAMDYWGQGSLVTVSSASTKGPSVFPLAPSSKSTSGGTAALGCLVKDYFPEPVTVSWNSGALTSGVHTFPAVLQSSGLYSLSSVVTVPSSSLGTQTYICNVNHKPSNTKVDKKV[human IgG1 Fc with K439E (EU numbers) omitted here]
# light: B1 light
# B4: MRAH-G1d/MRAL-KT0 K439G (antibody, human IgG1, kappa)
# heavy: QVQLQESGPGLVRPSQTLSLTCTVSGYSITSDHAWSWVRQPPGRGLEWIGYISYSGITTYNPSLKSRVTMLRDTSKNQFSLRLSSVTAADTAVYYCARSLARTTAMDYWGQGSLVTVSSASTKGPSVFPLAPSSKSTSGGTAALGCLVKDYFPEPVTVSWNSGALTSGVHTFPAVLQSSGLYSLSSVVTVPSSSLGTQTYICNVNHKPSNTKVDKKV[human IgG1 Fc with K439G (EU numbers) omitted here]
# light: B1 light
# B5: MRAH-G1d/MRAL-KT0 K439N (antibody, human IgG1, kappa)
# heavy: QVQLQESGPGLVRPSQTLSLTCTVSGYSITSDHAWSWVRQPPGRGLEWIGYISYSGITTYNPSLKSRVTMLRDTSKNQFSLRLSSVTAADTAVYYCARSLARTTAMDYWGQGSLVTVSSASTKGPSVFPLAPSSKSTSGGTAALGCLVKDYFPEPVTVSWNSGALTSGVHTFPAVLQSSGLYSLSSVVTVPSSSLGTQTYICNVNHKPSNTKVDKKV[human IgG1 Fc with K439N (EU numbers) omitted here]
# light: B1 light
# B6: MRAH-G1d/MRAL-KT0 K439Q (antibody, human IgG1, kappa)
# heavy: QVQLQESGPGLVRPSQTLSLTCTVSGYSITSDHAWSWVRQPPGRGLEWIGYISYSGITTYNPSLKSRVTMLRDTSKNQFSLRLSSVTAADTAVYYCARSLARTTAMDYWGQGSLVTVSSASTKGPSVFPLAPSSKSTSGGTAALGCLVKDYFPEPVTVSWNSGALTSGVHTFPAVLQSSGLYSLSSVVTVPSSSLGTQTYICNVNHKPSNTKVDKKV[human IgG1 Fc with K439Q (EU numbers) omitted here]
# light: B1 light
# B7: MRAH-G1d/MRAL-KT0 K439R (antibody, human IgG1, kappa)
# heavy: QVQLQESGPGLVRPSQTLSLTCTVSGYSITSDHAWSWVRQPPGRGLEWIGYISYSGITTYNPSLKSRVTMLRDTSKNQFSLRLSSVTAADTAVYYCARSLARTTAMDYWGQGSLVTVSSASTKGPSVFPLAPSSKSTSGGTAALGCLVKDYFPEPVTVSWNSGALTSGVHTFPAVLQSSGLYSLSSVVTVPSSSLGTQTYICNVNHKPSNTKVDKKV[human IgG1 Fc with K439R (EU numbers) omitted here]
# light: B1 light
# B8: MRAH-G1d/MRAL-KT0 K439S (antibody, human IgG1, kappa)
# heavy: QVQLQESGPGLVRPSQTLSLTCTVSGYSITSDHAWSWVRQPPGRGLEWIGYISYSGITTYNPSLKSRVTMLRDTSKNQFSLRLSSVTAADTAVYYCARSLARTTAMDYWGQGSLVTVSSASTKGPSVFPLAPSSKSTSGGTAALGCLVKDYFPEPVTVSWNSGALTSGVHTFPAVLQSSGLYSLSSVVTVPSSSLGTQTYICNVNHKPSNTKVDKKV[human IgG1 Fc with K439S (EU numbers) omitted here]
# light: B1 light
# B9: MRAH-G1d/MRAL-KT0 K439T (antibody, human IgG1, kappa)
# heavy: QVQLQESGPGLVRPSQTLSLTCTVSGYSITSDHAWSWVRQPPGRGLEWIGYISYSGITTYNPSLKSRVTMLRDTSKNQFSLRLSSVTAADTAVYYCARSLARTTAMDYWGQGSLVTVSSASTKGPSVFPLAPSSKSTSGGTAALGCLVKDYFPEPVTVSWNSGALTSGVHTFPAVLQSSGLYSLSSVVTVPSSSLGTQTYICNVNHKPSNTKVDKKV[human IgG1 Fc with K439T (EU numbers) omitted here]
# light: B1 light
# B10: MRAH-G1d/MRAL-KT0 K439W (antibody, human IgG1, kappa)
# heavy: QVQLQESGPGLVRPSQTLSLTCTVSGYSITSDHAWSWVRQPPGRGLEWIGYISYSGITTYNPSLKSRVTMLRDTSKNQFSLRLSSVTAADTAVYYCARSLARTTAMDYWGQGSLVTVSSASTKGPSVFPLAPSSKSTSGGTAALGCLVKDYFPEPVTVSWNSGALTSGVHTFPAVLQSSGLYSLSSVVTVPSSSLGTQTYICNVNHKPSNTKVDKKV[human IgG1 Fc with K439W (EU numbers) omitted here]
# light: B1 light
# B11: MRAH-G1d/MRAL-KT0 Q438N (antibody, human IgG1, kappa)
# heavy: QVQLQESGPGLVRPSQTLSLTCTVSGYSITSDHAWSWVRQPPGRGLEWIGYISYSGITTYNPSLKSRVTMLRDTSKNQFSLRLSSVTAADTAVYYCARSLARTTAMDYWGQGSLVTVSSASTKGPSVFPLAPSSKSTSGGTAALGCLVKDYFPEPVTVSWNSGALTSGVHTFPAVLQSSGLYSLSSVVTVPSSSLGTQTYICNVNHKPSNTKVDKKV[human IgG1 Fc with Q438N (EU numbers) omitted here]
# light: B1 light
# B12: MRAH-G1d/MRAL-KT0 Q438P (antibody, human IgG1, kappa)
# heavy: QVQLQESGPGLVRPSQTLSLTCTVSGYSITSDHAWSWVRQPPGRGLEWIGYISYSGITTYNPSLKSRVTMLRDTSKNQFSLRLSSVTAADTAVYYCARSLARTTAMDYWGQGSLVTVSSASTKGPSVFPLAPSSKSTSGGTAALGCLVKDYFPEPVTVSWNSGALTSGVHTFPAVLQSSGLYSLSSVVTVPSSSLGTQTYICNVNHKPSNTKVDKKV[human IgG1 Fc with Q438P (EU numbers) omitted here]
# light: B1 light
# B13: MRAH-G1d/MRAL-KT0 Q438W (antibody, human IgG1, kappa)
# heavy: QVQLQESGPGLVRPSQTLSLTCTVSGYSITSDHAWSWVRQPPGRGLEWIGYISYSGITTYNPSLKSRVTMLRDTSKNQFSLRLSSVTAADTAVYYCARSLARTTAMDYWGQGSLVTVSSASTKGPSVFPLAPSSKSTSGGTAALGCLVKDYFPEPVTVSWNSGALTSGVHTFPAVLQSSGLYSLSSVVTVPSSSLGTQTYICNVNHKPSNTKVDKKV[human IgG1 Fc with Q438W (EU numbers) omitted here]
# light: B1 light
# B14: MRAH-G1d/MRAL-KT0 S440G (antibody)
# heavy: QVQLQESGPGLVRPSQTLSLTCTVSGYSITSDHAWSWVRQPPGRGLEWIGYISYSGITTYNPSLKSRVTMLRDTSKNQFSLRLSSVTAADTAVYYCARSLARTTAMDYWGQGSLVTVSSASTKGPSVFPLAPSSKSTSGGTAALGCLVKDYFPEPVTVSWNSGALTSGVHTFPAVLQSSGLYSLSSVVTVPSSSLGTQTYICNVNHKPSNTKVDKKV[human IgG1 Fc with S440G (EU numbers) omitted here]
# light: B1 light
# B15: MRAH-G1d/MRAL-KT0 S440I (antibody)
# heavy: QVQLQESGPGLVRPSQTLSLTCTVSGYSITSDHAWSWVRQPPGRGLEWIGYISYSGITTYNPSLKSRVTMLRDTSKNQFSLRLSSVTAADTAVYYCARSLARTTAMDYWGQGSLVTVSSASTKGPSVFPLAPSSKSTSGGTAALGCLVKDYFPEPVTVSWNSGALTSGVHTFPAVLQSSGLYSLSSVVTVPSSSLGTQTYICNVNHKPSNTKVDKKV[human IgG1 Fc with S440I (EU numbers) omitted here]
# light: B1 light
# B16: MRAH-G1d/MRAL-KT0 S440Y (antibody)
# heavy: QVQLQESGPGLVRPSQTLSLTCTVSGYSITSDHAWSWVRQPPGRGLEWIGYISYSGITTYNPSLKSRVTMLRDTSKNQFSLRLSSVTAADTAVYYCARSLARTTAMDYWGQGSLVTVSSASTKGPSVFPLAPSSKSTSGGTAALGCLVKDYFPEPVTVSWNSGALTSGVHTFPAVLQSSGLYSLSSVVTVPSSSLGTQTYICNVNHKPSNTKVDKKV[human IgG1 Fc with S440Y (EU numbers) omitted here]
# light: B1 light
# B17: MRAH-G1d/MRAL-KT0 T437E (antibody, human IgG1, kappa)
# heavy: QVQLQESGPGLVRPSQTLSLTCTVSGYSITSDHAWSWVRQPPGRGLEWIGYISYSGITTYNPSLKSRVTMLRDTSKNQFSLRLSSVTAADTAVYYCARSLARTTAMDYWGQGSLVTVSSASTKGPSVFPLAPSSKSTSGGTAALGCLVKDYFPEPVTVSWNSGALTSGVHTFPAVLQSSGLYSLSSVVTVPSSSLGTQTYICNVNHKPSNTKVDKKV[human IgG1 Fc with T437E (EU numbers) omitted here]
# light: B1 light
# B18: MRAH-G1d/MRAL-KT0 T437M (antibody, human IgG1, kappa)
# heavy: QVQLQESGPGLVRPSQTLSLTCTVSGYSITSDHAWSWVRQPPGRGLEWIGYISYSGITTYNPSLKSRVTMLRDTSKNQFSLRLSSVTAADTAVYYCARSLARTTAMDYWGQGSLVTVSSASTKGPSVFPLAPSSKSTSGGTAALGCLVKDYFPEPVTVSWNSGALTSGVHTFPAVLQSSGLYSLSSVVTVPSSSLGTQTYICNVNHKPSNTKVDKKV[human IgG1 Fc with T437M (EU numbers) omitted here]
# light: B1 light
# B19: MRAH-G1d/MRAL-KT0 T437N (antibody, human IgG1, kappa)
# heavy: QVQLQESGPGLVRPSQTLSLTCTVSGYSITSDHAWSWVRQPPGRGLEWIGYISYSGITTYNPSLKSRVTMLRDTSKNQFSLRLSSVTAADTAVYYCARSLARTTAMDYWGQGSLVTVSSASTKGPSVFPLAPSSKSTSGGTAALGCLVKDYFPEPVTVSWNSGALTSGVHTFPAVLQSSGLYSLSSVVTVPSSSLGTQTYICNVNHKPSNTKVDKKV[human IgG1 Fc with T437N (EU numbers) omitted here]
# light: B1 light
# B20: MRAH-G1d/MRAL-KT0 T437V (antibody, human IgG1, kappa)
# heavy: QVQLQESGPGLVRPSQTLSLTCTVSGYSITSDHAWSWVRQPPGRGLEWIGYISYSGITTYNPSLKSRVTMLRDTSKNQFSLRLSSVTAADTAVYYCARSLARTTAMDYWGQGSLVTVSSASTKGPSVFPLAPSSKSTSGGTAALGCLVKDYFPEPVTVSWNSGALTSGVHTFPAVLQSSGLYSLSSVVTVPSSSLGTQTYICNVNHKPSNTKVDKKV[human IgG1 Fc with T437V (EU numbers) omitted here]
# light: B1 light
# Target: T1, human TRIM21 PRYSPRY domain with …
# Experiment: SPR, Ab captured on Protein L, 100 nM hTRIM21
row,Binder,hTRIM21 binding level ratio (variant/control antibody)
1,B1,1.03
2,B2,1.15
3,B3,1.09
4,B4,1.12
5,B5,1.03
6,B6,1.06
7,B7,0.857
8,B8,1.02
9,B9,1.06
10,B10,0.948
11,B11,0.564
12,B12,0.419
13,B13,0.605
14,B14,0.945
15,B15,1
16,B16,1.08
17,B17,1.19
18,B18,0.554
19,B19,1.09
20,B20,0.19

# Target: T2, human FcRn (human, UniProt P55899, in part; P61769, in part)
# T2 construct: also called hFcRn
# Experiment: SPR pH 6.0, Ab captured on Protein L, 1 uM hFcRn
row,Binder,hFcRn binding level ratio (variant/control antibody)
1,B1,0.91
2,B2,0.64
3,B3,0.9
4,B4,0.88
5,B5,0.91
6,B6,0.94
7,B7,0.92
8,B8,0.9
9,B9,0.91
10,B10,0.08
11,B11,0.78
12,B12,0.05
13,B13,0.96
14,B14,0.95
15,B15,0.92
16,B16,0.92
17,B17,0.95
18,B18,0.91
19,B19,0.95
20,B20,0.87
